Test results: ChEMBL document CHEMBL3822450, “Novel c-Met inhibitory olive secoiridoid semisynthetic analogs for the control of invasive breast cancer” (Eur J Med Chem, 2016)

Legend:
Assay in all cases: cells
MDA-MB-468 = conditions: Homo sapiens, MDA-MB-468, 72 h
MDA-MB-231 [1] = conditions: Homo sapiens, MDA-MB-231, 24 h
MDA-MB-231 [2] = conditions: Homo sapiens, MDA-MB-231, 24 h; remark: listed apart in the source
MDA-MB-231 [3] = conditions: Homo sapiens, MDA-MB-231, 72 h

For C/C=C(/C=O)[C@@H](C=O)CC(=O)OCCc1ccc(O)cc1, the IC50 (MDA-MB-468) was 19.1 µM, the IC50 (MDA-MB-231 [1]) was 7.5 µM and the IC50 (MDA-MB-231 [2]) was 18.2 µM. The IC50 (MDA-MB-231 [3]) was 15 µM.
